# scFv variants of Ab-14 (light chain) against a SARS-CoV-2 spike peptide

Target: peptide PDVDLGDISGINAS, taken from heptad repeat 2 (HR2) of SARS-CoV-2 spike.

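The parent was found by panning a naive human phage display library on the peptide. The library (AAYL50) carries one to three amino acid substitutions per variant, with no insertions or deletions. The assay is AlphaSeq: two haploid yeast populations carry antibody and antigen on their surface. After mating in shaken culture at 30 °C for 16 h, diploids were selected and their barcode pairs sequenced. Scores were corrected for input abundance and mapped to Kd with protein pairs of known affinity run in the same pool. Each pool was mated in three replicate cultures.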

Each scFv is VH, three GGGGS repeats, VL, as in the parent Ab-14, and differs from it in the CDRs of the light chain only.
VH: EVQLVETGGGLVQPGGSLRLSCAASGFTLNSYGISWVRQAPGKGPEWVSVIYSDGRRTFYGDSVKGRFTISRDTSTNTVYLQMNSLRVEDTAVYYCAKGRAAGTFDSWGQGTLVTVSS
VL: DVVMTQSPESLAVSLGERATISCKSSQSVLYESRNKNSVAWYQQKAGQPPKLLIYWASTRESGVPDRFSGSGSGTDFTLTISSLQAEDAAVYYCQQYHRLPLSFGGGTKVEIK

Substitutions are numbered in sequence along the VL above, starting at 1 (not Kabat). Every variant below is changed at W56 of the VL (sequential numbering). Scale: log10 of Kd in nM, estimated from mating counts; low values are strong binders. Replicates are averaged; those with no signal do not enter the mean. An entry "ND" has no value in the source: the pair was not observed among the diploids in that replicate. This suggests poor binding but is not conclusive. Three control strains display no target. For library AAYL50, 18% of the pairings with them gave a signal, with a median of 4.19 and one signal in twenty below 2.99, so weak values seen in few replicates may be background.

With L30W N37V W56Y the result was 1.33, 1.71, 1.40 (mean 1.48). With Y31V S38H W56A the result was 0.59, 0.77, 0.67 (mean 0.68). The variant W56T L102E gave ND, ND, ND. The variant W56Q T59N S62R gave 0.17, 0.46, 0.39 (mean 0.34). The variant S33C W56A showed ND, ND, ND. For N35W S38G W56D, the assay gave 0.00, 0.32, 0.22 (mean 0.18). For K36T A40I W56V, the assay gave ND, ND, 4.64.

The variant W56N S58T P101K showed 3.83, 3.84, 3.08 (mean 3.58). With S26T W56Q S103W the result was 0.07, 0.38, 0.24 (mean 0.23). The variant R34N W56Y S103M showed -0.06, 0.28, 0.12 (mean 0.11). With Y31E N35Y W56E the result was -0.14, 0.18, -0.02 (mean 0.01). The variant N37T W56A Q96I showed 0.67, 0.76, 0.99 (mean 0.81). The variant A40H W56V R60A gave ND, ND, ND. With Y31S A40G W56M the result was 2.43, ND, ND.

With W56T T59G P101L the result was 3.70, 3.95, ND (mean 3.82). The variant R34I W56N R60T showed 0.15, 0.44, 0.29 (mean 0.29). For S25L W56S E61W, the assay gave -0.56, -0.15, -0.51 (mean -0.41). With S26T E32M W56L the result was ND, ND, ND. For S33K W56Y R99A, the assay gave ND, 1.72, ND. For W56Q S62Y H98K, the assay gave 0.59, 1.03, 0.69 (mean 0.77). The variant S25K V39W W56P gave 5.57, ND, ND.

The variant S25M W56N L102G showed 5.69, 4.75, ND (mean 5.22). The variant K24G W56L A57F gave ND, ND, ND. For W56P E61Y P101N, the assay gave ND, ND, ND. The variant W56M R99W showed 1.45, 1.38, 1.26 (mean 1.36). For S25D W56P S103L, the assay gave ND, ND, ND. The variant S25P S26W W56Y showed 1.15, 1.24, 1.23 (mean 1.21). The variant V29I W56R H98K gave 1.48, 1.25, 1.55 (mean 1.43).

For N37F W56L, the assay gave 2.08, 1.92, 1.91 (mean 1.97). The variant Y31L W56M R99W gave 1.66, 1.62, 1.89 (mean 1.72). The variant S33E W56E A57I showed -0.32, -0.01, -0.16 (mean -0.16). The variant L30S W56G R60A showed 1.66, 1.69, 1.83 (mean 1.73). The variant S26K W56E E61W showed -0.08, 0.25, 0.04 (mean 0.07). With W56Y R60E L102Y the result was ND, 3.51, ND. With K24M W56G Q96E the result was 0.37, 0.87, -0.03 (mean 0.41).

The variant W56P Y97I S103Q showed ND, ND, ND. With S33Y W56C T59K the result was 3.18, 2.68, 3.75 (mean 3.20). The variant K24G S38L W56G showed 1.54, 1.27, 1.25 (mean 1.35). With S26K W56P A57S the result was ND, 4.29, ND. The variant Q27R W56Q L102N showed ND, 4.97, ND. With Q27A V29E W56L the result was 0.61, 0.81, 0.74 (mean 0.72). The variant W56C A57Y L102H gave 6.10, 3.99, ND (mean 5.05).

With Q27H E32I W56C the result was ND, 4.26, 5.64 (mean 4.95). The variant V39M W56I L102F gave ND, ND, ND. The variant S28A K36S W56Y showed 0.47, 0.78, 0.46 (mean 0.57). The variant W56E R60E Q95P gave 3.39, 2.27, 2.80 (mean 2.82). With Y31H N35A W56E the result was 0.05, 0.32, 0.10 (mean 0.16). With Q27S W56F S58F the result was ND, ND, ND. For A40S W56D A57I, the assay gave 0.87, 1.03, 0.93 (mean 0.94).

For Y31L W56V, the assay gave ND, ND, ND.

The first 6 variants above that were never detected:

{"changes": "W56T L102E", "log10 Kd (nM) by replicate": "ND, ND, ND", "mean, log10 nM": "ND"}
{"changes": "S33C W56A", "log10 Kd (nM) by replicate": "ND, ND, ND", "mean, log10 nM": "ND"}
{"changes": "A40H W56V R60A", "log10 Kd (nM) by replicate": "ND, ND, ND", "mean, log10 nM": "ND"}
{"changes": "S26T E32M W56L", "log10 Kd (nM) by replicate": "ND, ND, ND", "mean, log10 nM": "ND"}
{"changes": "K24G W56L A57F", "log10 Kd (nM) by replicate": "ND, ND, ND", "mean, log10 nM": "ND"}
{"changes": "W56P E61Y P101N", "log10 Kd (nM) by replicate": "ND, ND, ND", "mean, log10 nM": "ND"}

Data: MIT Lincoln Laboratory AlphaSeq set, Engelhart et al. 2022, doi:10.1038/s41597-022-01779-4, as distributed in FLAb.